The supplement of paper PMC12024424
The entries are a selection whose mix differs from that of the whole data set.

System: Staphylococcus aureus Sa2 (MRSA, cystic fibrosis isolate)
Test: growth reduction vs untreated control (OD550); higher = stronger antibacterial activity
Conditions: 0.1 mM; 24 h
Protocol: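 Single-dose screen of the MedChem Express Drug Repurposing Library (0.1 mM, 1% DMSO) against planktonic MRSA S. aureus Sa2 (CF isolate) in TSB in 96-well plates, 37 °C aerobic, 24 h. Growth reduction is relative to the untreated inoculated control: OD550 of supernatant (blank-subtracted) and confirmation by viable CFU count. Assays were run in triplicate and repeated twice.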

SMILES	growth reduction [%]
COc1cc(Br)c(C[N+]2(CCOCCC3CCC4CC3C4(C)C)CCOCC2)cc1OC (stereo unspecified) [Pinaverium bromide]	100
